eIF4H inh = human eIF4H binding inhibitors, primary screen, translation initiation inhibitor project, biochemical, uHTS, fluorescence polarization. inhibition, % at 35 µM. Eukaryotic translation initiation factor 4H (Homo sapiens), Q15056. eIF4H fluorescence polarization binding assay. 0.94% of 290,000 active;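 also: calls also rest on retests at 20 µM and on dose response follow-up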
UUG fidelity = modulators of start codon recognition fidelity in yeast. S. cerevisiae UUG-firefly luciferase reporter, luminescence/redox ratio. activity score, % at 18.7 µM. 0.13% of 350,000 active. AID 602363;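 active = replicate mean at a twofold rise or more, about +100% in these data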;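 also: firefly luciferase made from a UUG start codon reports start codon fidelity; reporter light over untreated wells divided by growth signal over untreated wells; some hits fall short of that in this replicate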
MLLE-PAM2 inh = inhibitors of PABP1 MLLE–PAM2 peptide binding, primary screen, biochemical, fluorescence polarization, FITC-PAM2, GST-MLLE | inhibition, % at 20 µM | 0.36% of 360,000 active | Polyadenylate-binding protein 1 (Homo sapiens), P11940; in the data active = inhibition above about 35%, passing the limit was not always enough;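 also: plate controls were DMSO wells with GST-MLLE for no effect and wells lacking GST-MLLE protein for full effect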
Pemphigus Ab inh = inhibitors of pemphigus antibody binding to DSG3, primary screen, biochemical, bead-based, flow cytometry, scFv-GFP. Desmoglein-3 (Homo sapiens), P32926. DSG3-coupled beads, scFv-anti-DSG3-GFP binding; hits give low values. binding (percent of control), % at 10 µM. 0.48% of 310,000 active;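 active = binding more than 3 SD below its plate's average and above zero; inconclusive = below that plate limit but binding exactly zero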;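 also: hits lower antibody fragment binding to DSG3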
PABP polyA inh = PABP poly(A) RNA binding inhibitors, primary screen, biochemical, fluorescence polarization, uHTS; AID 2014, 2009; Polyadenylate-binding protein 1 (Homo sapiens), P11940; 1% of 290,000 active; calls only at 35 µM;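 also: calls also rest on retests at 20 µM and on dose response follow-up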
An asterisk follows results filed as active; i = inactive; ? = inconclusive; / = no result given; + = active, no number. Sampled rows, rich in hits. Any-hit rate of the full collection: about 1.5%. Unless noted, no rule for the calls is given here.

Sequences of proteins named here, by UniProt entry; tags and fusion partners are left off.
Polyadenylate-binding protein 1 (Homo sapiens), P11940, UniProt P11940, whole entry, looked up: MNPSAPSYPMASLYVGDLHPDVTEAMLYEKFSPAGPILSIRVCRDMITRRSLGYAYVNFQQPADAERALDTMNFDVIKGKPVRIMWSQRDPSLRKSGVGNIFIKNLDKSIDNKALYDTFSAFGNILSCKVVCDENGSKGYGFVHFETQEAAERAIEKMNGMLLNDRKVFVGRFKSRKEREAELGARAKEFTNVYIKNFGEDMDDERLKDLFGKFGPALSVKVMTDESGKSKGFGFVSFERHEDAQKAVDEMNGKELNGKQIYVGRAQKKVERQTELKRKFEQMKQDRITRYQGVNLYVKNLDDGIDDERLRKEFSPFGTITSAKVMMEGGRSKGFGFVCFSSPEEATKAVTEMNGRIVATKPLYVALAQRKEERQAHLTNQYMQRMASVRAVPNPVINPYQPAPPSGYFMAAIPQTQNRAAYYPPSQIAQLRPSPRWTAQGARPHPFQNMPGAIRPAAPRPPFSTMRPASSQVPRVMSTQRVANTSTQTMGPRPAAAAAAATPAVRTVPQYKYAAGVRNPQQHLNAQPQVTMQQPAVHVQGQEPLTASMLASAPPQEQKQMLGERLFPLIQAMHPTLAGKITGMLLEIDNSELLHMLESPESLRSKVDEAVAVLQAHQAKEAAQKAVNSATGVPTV
Desmoglein-3 (Homo sapiens), P32926, UniProt P32926, whole entry, looked up: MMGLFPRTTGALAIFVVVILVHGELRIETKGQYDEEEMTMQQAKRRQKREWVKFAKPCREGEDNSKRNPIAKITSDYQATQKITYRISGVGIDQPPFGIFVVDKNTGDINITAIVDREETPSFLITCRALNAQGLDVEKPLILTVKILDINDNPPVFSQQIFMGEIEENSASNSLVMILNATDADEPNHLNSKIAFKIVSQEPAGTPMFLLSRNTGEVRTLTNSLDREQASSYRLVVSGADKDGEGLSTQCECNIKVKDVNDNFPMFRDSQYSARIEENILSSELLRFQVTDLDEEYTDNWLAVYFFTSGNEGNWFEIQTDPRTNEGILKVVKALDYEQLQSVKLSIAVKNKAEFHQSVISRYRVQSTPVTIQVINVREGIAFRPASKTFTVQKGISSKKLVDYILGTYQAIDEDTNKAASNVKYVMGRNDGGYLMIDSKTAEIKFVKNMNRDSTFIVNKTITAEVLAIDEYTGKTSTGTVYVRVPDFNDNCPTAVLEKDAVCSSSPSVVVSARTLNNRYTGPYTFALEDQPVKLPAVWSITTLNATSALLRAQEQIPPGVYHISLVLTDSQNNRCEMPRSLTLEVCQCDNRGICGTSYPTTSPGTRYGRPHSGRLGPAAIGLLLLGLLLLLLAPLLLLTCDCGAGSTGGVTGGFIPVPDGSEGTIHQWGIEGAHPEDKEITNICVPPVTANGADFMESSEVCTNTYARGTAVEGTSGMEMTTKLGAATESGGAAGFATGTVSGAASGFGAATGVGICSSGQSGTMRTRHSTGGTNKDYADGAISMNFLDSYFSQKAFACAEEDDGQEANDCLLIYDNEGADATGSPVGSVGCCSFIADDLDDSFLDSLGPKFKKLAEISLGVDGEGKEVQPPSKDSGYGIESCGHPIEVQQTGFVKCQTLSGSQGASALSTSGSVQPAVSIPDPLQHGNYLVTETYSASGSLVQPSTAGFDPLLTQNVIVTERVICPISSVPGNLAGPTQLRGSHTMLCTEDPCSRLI

cpd	eIF4H inh	UUG fidelity	MLLE-PAM2 inh	Pemphigus Ab inh	PABP polyA inh	Structure
1	/	5	/	/	/	CN(C)CC#Cc1ccc([C@@H]2[C@H]3CN(C(=O)C4CCCC4)CCCCN3[C@H]2CO)cc1
2	/	3	/	/	/	CCCNC(=O)N1[C@H](CO)[C@H](c2ccccc2)[C@@H]1CNC(=O)c1ccc(F)cc1
3	/	-2	/	/	/	Cc1noc(C)c1NC(=O)NCC[C@H]1CC[C@@H](NC(=O)c2ccncc2)[C@H](CO)O1
4	?	-7	-21	94	+	O=C(NNC(=O)C1[C@H]2CCCC[C@@H]12)c1ccc(=O)oc1 (some centres not stated)
5	/	12	/	/	/	Cc1noc(C)c1NC(=O)Nc1ccc2c(c1)CC(=O)N([C@@H](C)CO)C[C@@H](C)[C@@H](CN(C)C(=O)Nc1c(C)noc1C)O2
6	-9	-5	11	101	i	CCCOc1ccc(C(=O)NCC(c2cccs2)N(C)C)cc1 (configuration not stated)
7	87*	-3	0	108	i	CCOc1ccc(C(=O)NCC(c2cccs2)N(C)C)cc1OCC (configuration not stated)
8	/	4	/	/	/	C[C@@H]1CCCCO[C@H](CN(C)S(=O)(=O)c2ccccc2)[C@@H](C)CN([C@H](C)CO)C(=O)c2cc(NC(=O)CCC(F)(F)F)ccc2O1
9	43	-14	43*	91	i	COCCCNc1nc2ccccc2nc1NS(=O)(=O)c1cccc(Cl)c1
10	3	17	-3	106	i	O=S(=O)(Nc1nc2ccccc2nc1NCCO)c1cccc(Cl)c1
11	/	-12	-9	70*	/	CCOC(=O)c1c(-c2ccccc2)c[nH]c1C
12	-6	-13	5	82*	i	Cc1cnc(NC(=O)CSc2nnc(COc3c(C)cccc3C)o2)s1
13	-5	/	-13	/	i	Cc1cnc(NC(=O)CSc2nnc(COc3ccccc3)o2)s1
14	4	/	-40	91	i	COc1ccc(C(CC(=O)NCc2ccccc2)Sc2n[nH]c(-c3ccc(Cl)cc3)n2)cc1 (configuration not stated)
15	86*	13	12	85	+	COc1ccc(C(CC(=O)NCc2ccccc2)Sc2n[nH]c(-c3ccccc3)n2)cc1 (configuration not stated)
16	6	-13	-1	100	i	c1ccc2c(c1)CCN(C1CCCCC1)C2
17	104*	-17	8	100	i	c1ccc2c(c1)NCC1CCCN21 (configuration not stated)
18	?	2	38*	163	?	CC(C)(C)OC(=O)NC(Cc1ccccc1)C(=O)N1CCC(C(=O)NCC(=O)Nc2ccc(F)cc2)CC1 (configuration not stated)
19	/	3	/	/	/	COCC(=O)Nc1ccc2c(c1)C(=O)N(C)[C@H]1CC[C@@H](CC(=O)NCc3ccccc3F)O[C@@H]1CO2
20	/	-2	/	/	/	CN(C)C(=O)C[C@@H]1CC[C@@H](NC(=O)NC2CCCCC2)[C@H](CO)O1
21	82*	-8	-14	/	+	CC(C)CC(C(=O)Nc1oc(-c2ccco2)c(-c2ccco2)c1C#N)N1C(=O)c2ccccc2C1=O (configuration not stated)
22	-3	1	5	101	i	CC(C)CC(C(=O)Nc1cccc(O)c1)N1C(=O)c2ccccc2C1=O (configuration not stated)
23	-11	-7	-17	87*	i	CC1(C)Cc2nc3oc4c(=O)n(CC(=O)Nc5ccc(Cl)cc5)cnc4c3cc2CO1
24	-4	/	-15	95*	i	CCn1c(SCC(=O)Nc2ccc(C(C)=O)cc2)nc2nc3c(cc2c1=O)COC(C)(C)C3
25	9.7*	/	-38	107	+	O=C1CCCCC1Sc1nnc(-c2ccc3c(c2)OCO3)o1 (configuration not stated)
26	/	-7	1	101	/	O=C(CSc1nc(-c2ccccc2)c(-c2ccccc2)o1)N1CCCCC1
27	80*	-17	-14	101	+	O=C(CSCC(=O)N1CCCCC1)Nc1nc(-c2ccccc2)c(-c2ccccc2)s1
28	/	2	0	80*	/	C[C@H]1COC(=O)[C@@H](Cc2ccc(F)cc2)CC/C=C/C[C@@H](CC(=O)N(CCO)Cc2ccccc2)C(=O)N1
29	/	1	/	/	/	C[C@H]1CN([C@@H](C)CO)C(=O)c2cccc(NS(=O)(=O)c3cn(C)cn3)c2O[C@H]1CN(C)C(=O)Nc1ccc(F)cc1
30	/	2	/	/	/	COc1ccccc1C#Cc1ccc([C@@H]2[C@H]3CN(C(=O)C4CCCC4)CCCCN3[C@H]2CO)cc1

A few values from the list.
Cc1noc(C)c1NC(=O)NCC[C@H]1CC[C@@H](NC(=O)c2ccncc2)[C@H](CO)O1 | UUG fidelity: -2
CCCOc1ccc(C(=O)NCC(c2cccs2)N(C)C)cc1 (configuration not stated) | eIF4H inh: -9

Additional structures follow:
cpd	eIF4H inh	UUG fidelity	MLLE-PAM2 inh	Pemphigus Ab inh	PABP polyA inh	Structure
31	/	-7	/	/	/	O=C(CN1CCOCC1)N1[C@H](CO)[C@@H]2c3ccccc3NC[C@@H]21
32	/	6	/	/	/	C[C@H]1CN([C@@H](C)CO)C(=O)Cc2cc(NC(=O)NC3CCCCC3)ccc2O[C@@H]1CN(C)Cc1ccc(Cl)c(Cl)c1
33	1	77	3	-36*	i	Cn1c(O)c(N=NC(=O)CNC(=O)c2ccccc2)c2ccccc21
34	/	6	/	/	/	CCCC#Cc1cnc2c(c1)C(=O)N([C@H](C)CO)C[C@@H](C)[C@@H](CN(C)C(=O)c1ccccc1)O2
35	/	-5	/	/	/	C[C@H](CO)N1C[C@H](C)[C@H](CN(C)S(C)(=O)=O)OCCCC[C@H](C)Oc2ccc(NC(=O)Cc3ccccc3)cc2C1=O
36	-6	5	-13	45*	i	CS(=O)(=O)c1ccccc1C(=O)NCCC(c1ccccc1)c1ccccc1
37	0	/	10	109	i	Cc1ccsc1C(=O)NCCC(c1ccccc1)c1ccccc1
38	/	13	/	/	/	C[C@H]1CCCCO[C@@H](CN(C)Cc2ccccc2)[C@@H](C)CN([C@@H](C)CO)C(=O)c2cc(NS(=O)(=O)c3ccc(F)cc3)ccc2O1
39	5	-19	1	105	i	O=C(CSc1nc(O)c(Cc2ccccc2)c(=O)[nH]1)N1CCOCC1
40	active	/	6	99	+	CCCCCc1c(O)nc(SCCN(CC)CC)[nH]c1=O
41	5	-8	41*	90	i	O=C(CSc1nc(O)c(Cc2ccccc2)c(=O)[nH]1)c1ccccc1
42	-8	-11	2	95	i	CCCCCc1c(O)nc(SCCN(C)C)[nH]c1=O
43	-1	-2	39*	101	i	CCCCc1c(O)nc(SCC(=O)c2ccccc2)[nH]c1=O
44	/	14	/	/	/	COc1ccc(NC(=O)Nc2ccc3c(c2)CC(=O)N([C@H](C)CO)C[C@H](C)[C@@H](CN(C)S(C)(=O)=O)O3)cc1
45	74	-3	-3	106	+	O=[N+]([O-])c1ccccc1CNc1ccc(F)c(Cl)c1
46	active	/	-7	94	i	Cc1cccc(C)c1NC(=O)c1cc(-c2ccccn2)nc2ccccc12
47	-6	-33	0	96	i	O=C(Nc1ccncc1)c1cc(-c2ccccn2)nc2ccccc12

Molecules from the list above that contain two or more sulfur atoms (3):
cpd	eIF4H inh	UUG fidelity	MLLE-PAM2 inh	Pemphigus Ab inh	PABP polyA inh	Structure
12	-6	-13	5	82*	i	Cc1cnc(NC(=O)CSc2nnc(COc3c(C)cccc3C)o2)s1
13	-5	/	-13	/	i	Cc1cnc(NC(=O)CSc2nnc(COc3ccccc3)o2)s1
27	80*	-17	-14	101	+	O=C(CSCC(=O)N1CCCCC1)Nc1nc(-c2ccccc2)c(-c2ccccc2)s1
